Assay results published in ChEMBL document CHEMBL1149999, “Synthesis and pharmacological activity of a macrocyclic benzamide” (Bioorg Med Chem Lett, 1995).

By UniProt entry, the sequences of proteins in these tests, tags left out.
UniProt P61169, whole entry: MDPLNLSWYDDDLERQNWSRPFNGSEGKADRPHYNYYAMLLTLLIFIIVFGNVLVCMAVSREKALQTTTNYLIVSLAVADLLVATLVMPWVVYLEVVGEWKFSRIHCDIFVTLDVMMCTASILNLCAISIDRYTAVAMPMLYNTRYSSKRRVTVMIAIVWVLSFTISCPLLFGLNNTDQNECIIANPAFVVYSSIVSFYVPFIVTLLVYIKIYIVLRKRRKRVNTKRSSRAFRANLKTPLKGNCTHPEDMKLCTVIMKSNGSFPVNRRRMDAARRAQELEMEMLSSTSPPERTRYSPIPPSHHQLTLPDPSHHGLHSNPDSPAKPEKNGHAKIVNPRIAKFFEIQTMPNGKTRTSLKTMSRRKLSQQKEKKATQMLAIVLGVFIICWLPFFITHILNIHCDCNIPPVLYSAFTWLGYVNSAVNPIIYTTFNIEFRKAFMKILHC

Target: D(2) dopamine receptor (Rattus norvegicus, UniProt P61169)
Assay: Binding affinity against Dopamine receptor D2 using [3H]spiperone as radioligand in rat striatum
Type: tissue-based

## CCN(CC)CCNC(=O)c1cc(Cl)c(N)cc1OC [METOCLOPRAMIDE]
  Ki: 285 nM
